Legend:
[1] = Cytotoxicity against human differentiated THP-M cells derived PMA induced THP-1 cells measured after 72 hrs by MTT assay
in vivo [2] = settings: Sprague-Dawley, rat, po
in vivo [3] = settings: Sprague-Dawley, rat, po; remark: listed apart in the source
in vivo [4] = settings: ICR, mouse, brain, ip, 20 mg/kg
in vivo [5] = settings: ICR, mouse, brain, ip, 20 mg/kg; remark: listed apart in the source
in vivo [6] = settings: ICR, mouse, plasma, ip, 20 mg/kg
in vivo [7] = settings: ICR, mouse, plasma, ip, 20 mg/kg; remark: listed apart in the source
in vivo [8] = settings: ICR, mouse, brain/plasma, ip, 20 mg/kg
in vivo [9] = settings: ICR, mouse, brain/plasma, ip, 20 mg/kg; remark: listed apart in the source
in vitro = settings: human, HMC3 cells

Tmax at 24 h (in vivo [2]): ~0.8 h
half-life at 24 h (in vivo [3]): ~5 h
concentration at 10 min (in vivo [4]): 1340 ng/g
concentration at 40 min (in vivo [5]): 1110 ng/g
concentration at 10 min (in vivo [6]): 5030 ng/mL
concentration at 40 min (in vivo [7]): 2980 ng/mL
Kp at 10 min (in vivo [8]): 0.27
Kp at 40 min (in vivo [9]): 0.37
Structure (SMILES): CS(=O)(=O)N1CCCc2ccc(NS(=O)(=O)c3ccc(-c4ccccc4)cc3)cc21
CC50 [1]: > 100 µM
CC50 at 72 h (in vitro): 88.8 µM
